Columns and labels:
Assay type in all cases: cell-based, human
[1] = test system: TNBC breast cancer cell lines (Hs578T, MDA-MB-231 and MDA-MB-468); assay: In vitro motility assay (Boyden chambers); conditions: cells pre-treated with the agent (inhibitors at non-cytotoxic amounts)
Experimental: Boyden chambers (Millipore, Molsheim, France) containing 8 μm pore membranes were cultured in 24-well plates. After hydration of the membranes, 10^5 cells were added to the top chamber in low serum (1%)-containing medium. […] Cells were cultured for 24 h at 37° C. in a 5% CO2 humidified incubator. To quantify invasion, cells were fixed with methanol and stained with Giemsa. Stained cells were then removed from the top side of the membrane using a cotton-tipped swab and five representative pictures for each insert were taken of the invading cells from the reverse side. For each experiment, cells were lysed and absorbance at 560 nm was measured.

EGFR [2] = assay: Ca2+ monitoring: EGF-induced Ca2+ response; conditions: TNBC cells (MDA-MB-231) in presence of EGF
Experimental: For experiments on parent cell lines, breast cancer cells were loaded with Fura2-PE3-AM (1 μM) at room temperature for 30 min in Hank's Balanced Salt Solution (HBSS). […] To minimize UV light exposure, a 4×4 binning function was used. Fura2-AM was alternately excited at 340 and 380 nm, and the ratios of the resulting images (excitations at 340 and 380 nm and emission filter at 520 nm) were produced at constant intervals (10 seconds). […] Fratio reflects the intracellular Ca^2+ concentration changes. Each experiment was repeated 3 times, and for each experimental condition, the average of more than 20 single-cell traces was used.

EGFR [3] = assay: EGFR phosphorylation at Tyr845 / CD95-driven EGFR activation; conditions: breast cancer cells
Experimental: Cells were lysed for 30 min at 4° C. in lysis buffer [25 mM HEPES (pH 7.4), 1% v/v Triton X-100, 150 mM NaCl, and 2 mM EGTA supplemented with a mix of protease inhibitors (Sigma-Aldrich)]. Protein concentration was determined by the bicinchoninic acid method (PIERCE, Rockford, Ill., USA) according to the manufacturer's protocol. Proteins were separated by SDS-PAGE and transferred to a nitrocellulose membrane (GE Healthcare, Buckinghamshire, England). The membrane was blocked for 15 min with TBST (50 mM Tris, 160 mM NaCl, 0.05% v/v Tween 20, pH 7.8) containing 5% w/v dried skimmed milk (TBSTM) and then incubated overnight with primary antibody at 4° C. in TBSTM. The membrane was intensively washed (TBST) and peroxidase-labeled anti-rabbit or anti-mouse (SouthernBiotech, Birmingham, Ala., US) was added for 45 min. The proteins were visualized with the enhanced chemiluminescence substrate kit (ECL, GE Healthcare).

Substance: cetuximab: antibody that binds to EGFR ectodomain and prevents its interaction with EGF
- effect on migration of TNBC cells exposed to cl-CD95L [1]: did not alter
- effect on EGF-induced Ca2+ response (EGFR [2]): abrogated
- effect on CD95-driven EGFR activation (EGFR [3]): does not impair
